# Ab-14 heavy chain CDR variants: yeast mating affinities

Target: peptide PDVDLGDISGINAS, taken from heptad repeat 2 (HR2) of SARS-CoV-2 spike.

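The starting antibody came from a phage panning campaign against this peptide. The variants were designed computationally from a first round of random CDR variants and then made and measured. Several design methods are mixed in this list. In AlphaSeq, yeast of one mating type display the scFv and yeast of the other type display the target. Binding brings cells together so that they mate, and sequencing counts the barcode pairs among the diploids. Read counts were normalised to the haploid input and turned into Kd by a linear fit to BCL2-family pairs of known affinity, for each replicate. Mating was done six times.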

Parent scFv Ab-14: VH joined to VL by the linker GGGGSGGGGSGGGGS. Changes lie in the heavy chain CDRs alone.
VH: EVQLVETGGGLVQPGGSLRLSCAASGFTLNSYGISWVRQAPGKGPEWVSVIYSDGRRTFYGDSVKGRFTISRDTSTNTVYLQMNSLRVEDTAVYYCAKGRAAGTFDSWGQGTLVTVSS
VL: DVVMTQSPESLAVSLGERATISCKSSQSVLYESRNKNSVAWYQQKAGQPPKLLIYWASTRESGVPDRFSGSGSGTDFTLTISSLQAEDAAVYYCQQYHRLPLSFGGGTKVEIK

Each variant is given by its three heavy chain CDRs, as the data file delimits them; those of the parent are GFTLNSYGIS, VIYSDGRRTFYGDSVK, GRAAGTFDS. Variants here have more than six changes. Affinities are written as log10 Kd with Kd in nM; a lower number is a better binder. Averages over replicates are reported, and they cover detected replicates only. "not detected" means that the variant was in the library but no mating with the target was seen in any replicate; the authors take this as a sign of poor binding, and no number exists. The authors' rule: three or more of the six replicates give a measured affinity, fewer mean a poor binder. The range of this assay differs from that of the first round, and the authors advise against merging the two. Background: pairings of all heavy chain designs with three empty control strains gave a value in 1% of cases (median 2.08, 5th percentile 0.84). Values in that range, when seen in few replicates, are hard to tell from nonspecific mating. For each scFv, signals with the empty controls are counted beside the result.

CDR-H1,CDR-H2,CDR-H3,"mean, log10 nM",seen in,control signals
GFDLDEYGIS,VIYADGRRTFYQDSVK,GQNAGTFDI,not detected,0/6,0/18
GGNLDEYGIS,VIYADGIRRQYVDNVK,GETADAFDM,not detected,0/6,0/18
GDQLDEYGIS,VIYADGMRTMYADSFK,GNKSVNIGD,not detected,0/6,0/18
GDSLNEYGIS,VIYADGRRSFYTDNVK,GHAGGIFMS,1.05,1/6,0/18
GFNLDEYGIS,VIYADGRRTFYADSVK,GQVAGTFDL,-0.18,6/6,0/18
GKNLDEYGVS,VIYADGKRTAYANNFK,GGNAGFFKS,1.73,1/6,0/18
GFDLAEYGIS,VIYADGMRVSYNQNVK,GTGGGSFNF,not detected,0/6,0/18
GFDLNEYGIS,VIYADGVRTYYADSVK,GNVAGTFDV,-0.26,6/6,0/18
GFDLNEYGIS,VIYADGSRTFYSDSVK,GNQAGTFDS,-0.76,6/6,2/18
GFDLQEYGIS,VIFADGLRSAYSDKVK,GQINGYFVD,not detected,0/6,0/18
GFDLDEYGIS,VIYADGMRTFYADSVK,GNIAGTFNS,-0.31,6/6,0/18
GFNLDEYGIS,VIYADGVRTAYADSVK,GEVAGTFDL,-0.47,6/6,0/18
GFDLNEYGIS,VIYADGKRTFYADSVK,GNTAGTFLS,-0.39,6/6,1/18
GFDLDEYGIS,VIYADGMRTAYADSVK,GQVAGTFDI,-1.19,6/6,0/18
GFNLDEYGIS,VIYADGKRTFYADSVK,GEVAGTFDV,1.08,6/6,0/18
GFDIDEYGIS,VIYADGMRTFYTDSVK,GEAAGTFDV,-0.43,6/6,0/18
GFDLNEYGIS,VIYADGKRTAYSDSVK,GTNAGTFDS,-0.62,6/6,1/18
GFDIMEYGVS,VIYADGVRTAYSQDVK,GNNLDSYVD,not detected,0/6,0/18
GFDLDEYGIS,VIYADGIRKYYVDNVK,GLLAGHTIT,1.19,6/6,0/18
GFDLNEYGIS,VIYADGRRTAYSDSVK,GHIAGTFIQ,-0.04,6/6,0/18
GFDLNEYGIS,VIYADGVRTYYADSVK,GGNAGTFDV,-0.60,6/6,1/18
GFDLGEYGIS,VIYADGVRQSYVDKVK,GFNGVDLLV,not detected,0/6,0/18
GFDLDEYGIS,VIYADGVRKAYADDVK,GNVAGTFDV,-0.39,6/6,0/18
GFDLDEYGIS,VIYADGMRSVYADSVK,GTGGGTIEA,not detected,0/6,0/18
GFDLDEYGIS,VIYADGMRTFYADSVK,GNVAGTFDI,-1.36,6/6,0/18
GFDLNEYGIS,VIYADGVRTAYADSVK,GTNAGTFDT,0.67,6/6,1/18
GFDLNEYGIS,VIYADGRRTAYSDSVK,GGNAGFFDM,3.72,2/6,1/18
GFDLNEYGIS,VIYADGKRTVYADSVK,GNEAGTFDV,-0.54,6/6,2/18
GFNLDEYGIS,VIYADGQRTYYAEAVK,GSNDSGITV,not detected,0/6,0/18
GFDLNEYGIS,VIYADGQRTAYADSVK,GKAAGTFDN,-0.64,6/6,0/18
GFDLEEYGIS,VIYADGRRTAYADSVK,GENAGTFDV,0.02,6/6,0/18
GFDLEDYGIS,VIYADGQRTAYADSVK,GNVAGTFDI,not detected,0/6,0/18
GFDLNEYGIS,VIYADGKRTAYADSVK,GNVAGTFDS,not detected,0/6,0/18
GFDLNEYGIS,VIYADGQRTAYTDSVK,GTNAGTFDV,-0.68,6/6,0/18
GFDLNEYGIS,VIYADGRRTFYADSVK,GNTAGTFNS,-0.56,6/6,0/18
GFDLDEYGIS,VIYADGQRTAYSDSVK,GEVAGTFDV,-0.72,6/6,0/18
GFDLNEYGIS,VIYADGRRTAYSDSVK,GNTAGTFDM,-0.48,6/6,0/18
GFSLEEQGIS,VIYADGSRRAYAQDVK,GGTAVGFVV,1.49,1/6,0/18
GFGINEYGIS,VIYADGMRSAYANSVK,GAHAGGMVW,not detected,0/6,0/18
GTDHNSYGIS,VIYSDGRRTFYGDALK,GDAAGQFNS,not detected,0/6,0/18
GFDLNEYGIS,VIYADGKRTFYSDSVK,GTNAGTFDM,-0.45,6/6,1/18
GFDLNEYGIS,VIYADGSRKFYADSVK,GENAGTFDV,0.02,6/6,0/18
GFDLNEYGIS,VIYADGQRTAYADSVK,GNVAGTFDK,-0.29,6/6,2/18
GFTLSDYGIS,VEYSDGTYTQYIDSVK,GRAAGTFDS,1.21,1/6,0/18
GFDLNEYGIS,VIYADGVRTAYADNVK,GETAGTFDV,-0.22,6/6,0/18
GFNLDEIGIS,VIYADGMRTVYSQDVK,GQNVEFTVV,not detected,0/6,0/18
GFDLDEYGIS,VIYADGTRTAYADSVK,GNVAGTFDL,-0.12,6/6,1/18

Reference: Li et al. 2023, doi:10.1038/s41467-023-39022-2. File: FLAb, binding data.